Results taken from ChEMBL document CHEMBL4400551, “Discovery and lead optimisation of a potent, selective and orally bioavailable RARβ agonist for the potential treatment of nerve injury” (Bioorg Med Chem Lett, 2019).

Species: Mus musculus
Assay: Selectivity ratio of EC50 for GAL4-fused mouse RARalpha LBD expressed in COS-7 cells to EC50 for GAL4-fused mouse RARbeta-LBD expressed in COS-7 cells
Assay type: cell-based

In the case of `COc1ccc(-c2ccc3cc(C(=O)O)ccc3c2)cc1C1(C)CCCCC1`, the Ratio EC50 is reported as 11.
